These results are taken from patent US5162315A, “Penetration enhancers” (priority 1989, dated 1992).

This data set in a line: In vitro permeation of isosorbide dinitrate (ISDN) through human stratum corneum in diffusion cells (Example 8). To be noted: 0.7% ISDN cream, enhancer 2% (Control: no enhancer), about 500 mg applied, normal saline pH 7.2-7.4, triplicate.

As for `O=[N+]([O-])O[C@H]1CO[C@H]2[C@@H]1OC[C@H]2O[N+](=O)[O-]`, the “Average Cumulative Amount of ISDN in Micrograms permeating over 48 hours” value was determined as 535.0 ± 25 Micrograms.
